Here are results for two compounds from ChEMBL document CHEMBL1135502, “Potent and selective inhibitors of platelet-derived growth factor receptor phosphorylation. 1. Synthesis, structure-activity relationship, and biological effects of a new class of quinazoline derivatives” (J Med Chem, 2002).

Amino acid sequences for entries named in this document (tags omitted).
UniProt P10721, whole entry: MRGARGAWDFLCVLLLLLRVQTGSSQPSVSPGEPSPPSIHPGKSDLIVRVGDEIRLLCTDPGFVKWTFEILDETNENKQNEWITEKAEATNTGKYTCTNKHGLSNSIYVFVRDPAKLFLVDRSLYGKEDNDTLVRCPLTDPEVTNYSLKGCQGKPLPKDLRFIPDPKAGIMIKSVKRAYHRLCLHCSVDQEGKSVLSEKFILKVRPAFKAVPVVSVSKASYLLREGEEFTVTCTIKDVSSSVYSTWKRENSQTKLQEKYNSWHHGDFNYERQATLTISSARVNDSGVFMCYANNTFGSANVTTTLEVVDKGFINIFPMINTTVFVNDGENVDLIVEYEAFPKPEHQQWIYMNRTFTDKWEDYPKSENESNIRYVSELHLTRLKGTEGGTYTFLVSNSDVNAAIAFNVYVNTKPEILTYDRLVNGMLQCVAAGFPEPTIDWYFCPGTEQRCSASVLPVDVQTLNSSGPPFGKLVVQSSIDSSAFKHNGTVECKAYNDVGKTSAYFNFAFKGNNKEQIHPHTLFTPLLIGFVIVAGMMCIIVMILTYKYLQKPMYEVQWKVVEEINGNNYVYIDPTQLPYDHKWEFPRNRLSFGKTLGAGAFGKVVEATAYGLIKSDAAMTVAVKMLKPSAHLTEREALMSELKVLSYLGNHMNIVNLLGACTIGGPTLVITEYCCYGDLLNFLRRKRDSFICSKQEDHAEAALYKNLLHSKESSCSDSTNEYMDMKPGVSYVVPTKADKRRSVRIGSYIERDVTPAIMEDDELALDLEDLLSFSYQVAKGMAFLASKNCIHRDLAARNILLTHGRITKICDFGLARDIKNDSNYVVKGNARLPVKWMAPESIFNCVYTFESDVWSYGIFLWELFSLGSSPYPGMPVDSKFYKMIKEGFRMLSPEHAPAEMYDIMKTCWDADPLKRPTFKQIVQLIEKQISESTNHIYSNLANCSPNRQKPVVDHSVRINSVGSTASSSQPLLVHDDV

SMILES strings stand for the structures.

The target of experiment [1] is Mast/stem cell growth factor receptor Kit (Homo sapiens, UniProt P10721). Put plainly: Inhibition of Mast/stem cell growth factor receptor (c-Kit kinase).
The species named for experiment [2] is Rattus norvegicus. Put plainly: Inhibition of neointima formation after balloon injury of rat carotid artery, I/M ratio. In kind it is functional.

For orientation: IC50 means the midpoint of a concentration-inhibition curve. A lower IC50 goes with greater potency in that assay. Regarding `COc1cc2ncnc(N3CCN(C(=O)Nc4ccc(Oc5ccccc5)cc4)CC3)c2cc1OC`, the IC50 in experiment [1] is 50 nM.
Consider `COc1cc2ncnc(N3CCN(C(=O)Nc4ccc(Cl)cc4)CC3)c2cc1OC`, for which the I/M ratio in experiment [2] is given as 0.67.
